Patent US6524805B1 (priority 1997, dated 2003)

Amino acid sequences for entries named in this document (tags omitted). Residues count along the entry.
UniProt P35372, 1-314 isoform P35372-14: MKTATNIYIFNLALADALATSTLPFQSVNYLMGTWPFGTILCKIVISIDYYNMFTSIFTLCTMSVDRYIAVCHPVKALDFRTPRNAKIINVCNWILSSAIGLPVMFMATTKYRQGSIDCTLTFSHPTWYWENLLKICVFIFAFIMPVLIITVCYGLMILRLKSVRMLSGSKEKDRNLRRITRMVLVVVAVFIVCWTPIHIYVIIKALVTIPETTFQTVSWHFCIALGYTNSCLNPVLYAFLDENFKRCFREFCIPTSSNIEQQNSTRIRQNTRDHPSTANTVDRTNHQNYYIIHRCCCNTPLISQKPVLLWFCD

How the values were obtained:
[1] = target: T1, mu3 opiate receptor (Homo sapiens, UniProt P35372); experiment: biochemical; conditions: Displacement of [3H]-DHM IC50
[2] = target: T1, mu3 opiate receptor; type: cell-based; design: aliquots of membrane suspensions from human granulocytes and lung non-small cell carcinoma; from tissue; host or cells: human granulocytes, human monocytes, normal lung, non-small cell lung carcinoma tissue, vascular tissue

SMILES | IC50 [1] [nM] | stimulation of intracellular calcium level increases in endothelial cells [2]
CC(C)C[C@@H](NC(=O)[C@H](Cc1ccccc1)NC(=O)CNC(=O)[C@@H](C)NC(=O)[C@@H](N)Cc1ccc(O)cc1)C(=O)O [DADLE, (D-Ala^2, Leu^5)-enkephalin] | > 1000 | –
CC[C@H](C)[C@H](NC(=O)[C@H](CCCNC(=N)N)NC(=O)[C@H](CCCNC(=N)N)NC(=O)[C@H](CC(C)C)NC(=O)[C@H](Cc1ccccc1)NC(=O)CNC(=O)CNC(=O)[C@@H](N)Cc1ccc(O)cc1)C(=O)N[C@@H](CCCNC(=N)N)C(=O)N1CCC[C@H]1C(=O)N[C@@H](CCCCN)C(=O)N[C@@H](CC(C)C)C(=O)N[C@@H](CCCCN)C(=O)N[C@@H](Cc1c[nH]c2ccccc12)C(=O)N[C@@H](CC(=O)O)C(=O)N[C@@H](CC(N)=O)C(=O)N[C@@H](CCC(N)=O)C(=O)O [Dynorphin 1-17] | – | did not stimulate
